One may read the inhibition as the relative decrease from the control value, in per cent.

By UniProt entry, the sequences of proteins in these tests, tags left out. Residues count along the entry.
UniProt Q9GZU7, 76-261 limits assumed: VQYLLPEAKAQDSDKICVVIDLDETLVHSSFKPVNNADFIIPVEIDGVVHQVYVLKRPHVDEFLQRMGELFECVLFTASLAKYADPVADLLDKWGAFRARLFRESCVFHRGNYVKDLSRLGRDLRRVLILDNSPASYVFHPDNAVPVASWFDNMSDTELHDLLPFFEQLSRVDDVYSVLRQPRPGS

This is a selection; strong and weak results do not stand in their true shares. The source made the active and inactive calls.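 How the source made its calls: active means inhibition above about 50% at 20 µM (limit read from the data); inactive means the rest.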

Consider one compound from PubChem BioAssay AID493091 (Sanford-Burnham Center for Chemical Genomics, 2011).

The target of this experiment is Carboxy-terminal domain RNA polymerase II polypeptide A small phosphatase 1 (Homo sapiens) (UniProt Q9GZU7). The experiment can be described thus: Scp-1 phosphatase inhibitors, primary screen, biochemical, colorimetric, uHTS (AID 493091).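 Further: plate controls were DMSO wells with enzyme for no effect and wells lacking enzyme for full effect.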 The note with it: Recombinant Scp1, phosphopeptide, malachite green phosphate absorbance; at 20 µM; stronger effect = higher value. The method, boiled down:
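Material – SCP-1 phosphatase catalytic domain, residues 76-261 · Buffer or medium – Acidic Tris acetate buffer with magnesium and detergent · Also added – Phospho 17-mer peptide substrate · Compound – single 20 µM dose, 1% DMSO · Times – 45 min room-temperature reaction, 5 min colour, 30 min stabiliser · Technique – Phosphate-binding colour reagent, absorbance read at 630 nm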
For `CCc1ccc(OP(C)(=O)O)cc1`, the inhibition is inactive: 2.57%.
